Measurements taken from patent US20190014776A1 (priority 2017, published 2019).

Type: physicochemical
Conditions: relative to tank mix of CLARITY and CONTROLMAX; dicamba 1.2 wt. % a.e., glyphosate 2.4 wt. % a.e.; 35° C., 40% RH, 24 hours

CCCC[P+](CCCC)(CCCC)CCCC.COc1c(Cl)ccc(Cl)c1C(=O)[O-] [TBP Dicamba, tetrabutylphosphonium (TBP) dicamba]
Volatility Reduction: 99.7%
